Experiments:
ABHD16A (mouse) = ABHD16A (mouse) (Mus musculus, UniProt Q9Z1Q2); test: Lipid substrate hydrolysis assay, murine ABHD16A-transfected HEK293T membrane proteome
[1] = Lipid substrate hydrolysis assay, mock-transfected HEK293T membrane proteome; conditions: substrate 100 μM
Description: All the lipid species used in the lipid substrate hydrolysis assays were purchased from Avanti Polar Lipids Inc unless mentioned otherwise. In general, 20 μg of proteome was incubated with 100 μM lipid in a reaction volume of 100 μL in PBS at 30° C. with constant shaking. After 30 minutes the reaction was quenched with 350 μL of 2:1 (vol/vol) CHCl3: MeOH, doped with 0.5 nmol internal standard (17:1 FFA). The mixture was vortexed, and the centrifuged at 2800×g for 5 minutes to separate the aqueous (top) and organic (bottom) phase. The organic phase was collected. 5 μL of formic acid was added to the aqueous phase, and extracted again using 350 μL of 2:1 (vol/vol) CHCl3: MeOH using above mentioned protocol. The organic phase was collected, and pooled with the organic phase from the first extraction. […] All the data was collected and analyzed using the Agilent MassHunter Workstation software version B.04 using the Data Acquisition and Quantitative Analysis programs respectively. Measuring the area under the peak, and normalizing it to the internal standard quantified the product release for the lipid substrate hydrolysis assays. […] Some products from the substrate hydrolysis assays were detected in positive ion mode for qualitative identification. […]

By UniProt entry, the sequences of proteins in these tests, tags left out.
UniProt Q9Z1Q2, whole entry: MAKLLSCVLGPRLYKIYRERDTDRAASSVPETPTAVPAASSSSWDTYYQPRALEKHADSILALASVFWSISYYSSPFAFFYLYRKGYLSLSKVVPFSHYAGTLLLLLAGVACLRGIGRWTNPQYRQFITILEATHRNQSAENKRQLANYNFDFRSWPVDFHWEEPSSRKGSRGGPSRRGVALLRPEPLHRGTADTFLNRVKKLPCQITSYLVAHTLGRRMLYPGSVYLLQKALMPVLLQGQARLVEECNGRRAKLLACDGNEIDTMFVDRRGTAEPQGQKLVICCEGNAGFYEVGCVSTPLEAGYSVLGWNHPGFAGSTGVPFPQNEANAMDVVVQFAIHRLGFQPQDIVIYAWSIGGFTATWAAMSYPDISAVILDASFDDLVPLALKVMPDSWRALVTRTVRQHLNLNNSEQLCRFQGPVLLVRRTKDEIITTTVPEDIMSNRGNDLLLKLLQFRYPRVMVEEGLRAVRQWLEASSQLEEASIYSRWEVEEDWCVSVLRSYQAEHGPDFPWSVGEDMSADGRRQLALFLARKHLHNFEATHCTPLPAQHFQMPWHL
UniProt O95870, whole entry: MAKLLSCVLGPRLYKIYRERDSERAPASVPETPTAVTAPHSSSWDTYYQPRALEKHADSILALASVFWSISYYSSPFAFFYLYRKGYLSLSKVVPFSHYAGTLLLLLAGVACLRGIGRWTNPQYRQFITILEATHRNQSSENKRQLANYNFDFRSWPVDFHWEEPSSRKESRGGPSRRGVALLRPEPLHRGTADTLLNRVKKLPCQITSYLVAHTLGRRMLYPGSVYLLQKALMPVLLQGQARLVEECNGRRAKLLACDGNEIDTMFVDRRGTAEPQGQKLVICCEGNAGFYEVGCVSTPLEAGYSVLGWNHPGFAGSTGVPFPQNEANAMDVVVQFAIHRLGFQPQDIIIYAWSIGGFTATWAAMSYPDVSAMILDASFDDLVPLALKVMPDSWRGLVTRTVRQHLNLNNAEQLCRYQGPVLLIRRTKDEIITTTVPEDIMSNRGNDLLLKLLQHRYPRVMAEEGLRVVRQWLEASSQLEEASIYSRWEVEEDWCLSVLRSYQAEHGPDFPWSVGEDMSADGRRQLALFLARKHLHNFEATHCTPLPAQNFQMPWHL

human ABHD16A = human ABHD16A (Homo sapiens, UniProt O95870); test: Competitive gel-based ABPP, human ABHD16A-transfected HEK293T proteome; format: biochemical; conditions: read-out: IC50, gel-based ABPP; 30 min, 37° C., then FP-rhodamine 2 μM

Compound | IC50 (human ABHD16A) [nM] | other results
CCCCC/C=C\C/C=C\CCCCCCCC(=O)O[C@H](COC(=O)CCCCCCCCCCCCCCCCC)COP(=O)(O)OC[C@H](N)C(=O)O |  | Lipase activity, ABHD16A, Mean (ABHD16A (mouse); substrate 100 μM): 27.9 nmol/mg/min; Km (ABHD16A (mouse); substrate of ABHD16A): 40 µM; Vmax (ABHD16A (mouse); substrate of ABHD16A): 35 ± 3 nmol/mg/min; Lipase activity, Mock, Mean [1]: 2.2 nmol/mg/min
CCCCCCCCCCCCCC1OC(=O)/C1=C\CCCCCS(N)(=O)=O (centres unmarked) [Compound 16, (Z)-6-(2-Oxo-4-tridecyloxetan-3-ylidene)hexane-1-sulfonamide] | 500 to 1000 | 
NC(=O)CCCCCC1C(=O)OC1CCc1ccccc1 (centres unmarked) | > 20000 | 

More lines, main results first:

IC50 (human ABHD16A) [nM] | Compound | other results
5000 | CCCCCCCCCCCCCC1OC(=O)C1CCCCCC(N)=O (centres unmarked) | 
200 to 500 | NC(=O)CCCC/C=C1\C(=O)OC1CCCCCCCCCc1ccccc1 (centres unmarked) [Compound 15, (Z)-6-(2-Oxo-4-(9-phenylnonyl)oxetan-3-ylidene)hexanamide] | 

— patent US20170313669A1, “LACTONE COMPOUNDS AND METHODS OF MAKING AND USING SAME” (THE SCRIPPS RESEARCH INSTITUTE, priority 2015, published 2017)
